These are literature values, as cited in publication PMC8129907 (Journal of Bone and Joint Infection, 2021).

The conditions of the data set: range across clinical and experimental studies of intraosseous vancomycin; ref Young et al., 2014; Chin et al., 2018; Loc-Carrillo et al., 2016; Rubio-Martinez et al., 2006; Chastagner et al., 2001; cited from earlier work.

Each structure is given as a SMILES string.

Take `CN[C@H](CC(C)C)C(=O)N[C@H]1C(=O)N[C@@H](CC(N)=O)C(=O)N[C@H]2C(=O)N[C@H]3C(=O)N[C@H](C(=O)N[C@H](C(=O)O)c4cc(O)cc(O)c4-c4cc3ccc4O)[C@H](O)c3ccc(c(Cl)c3)Oc3cc2cc(c3O[C@@H]2O[C@H](CO)[C@@H](O)[C@H](O)[C@H]2O[C@H]2C[C@](C)(N)[C@H](O)[C@H](C)O2)Oc2ccc(cc2Cl)[C@H]1O` [vancomycin]: the “mean peak drug plasma concentrations” value is reported as 1.8 to 11 µg/mL.
